Measured values from patent publication US20130345182A1, “STABLE COMPOSITION COMPRISING CHOLESTEROL-LOWERING AGENTS, ANTIHYPERTENSIVE AGENTS AND ANTIPLATLET AGENTS” (Silanes Laboratories, priority 2010, published 2013).

Settings: human, in vivo

Structure (SMILES): CC[C@H](C)C(=O)O[C@H]1C[C@H](O)C=C2C=C[C@H](C)[C@H](CC[C@@H](O)C[C@@H](O)CC(=O)O)[C@H]21 [Pravastatin sodium, pravastatin sodium]
- Cmax: 240.56 ng/mL
